Measured values published in ChEMBL document CHEMBL5046283, “Design, Synthesis, and Biological Evaluation of the First Inhibitors of Oncogenic CHD1L” (J Med Chem, 2022).

Experiments:
[1] = in vivo; conditions: CD-1, mouse, liver, ip, 50 mg/kg
[2] = in vivo; conditions: CD-1, mouse, plasma, ip, 50 mg/kg
[3] = in vivo; conditions: CD-1, mouse, fat tissue, ip, 50 mg/kg

Measured: half-life

Cc1cc(Nc2ccc(NC(=O)Cc3cc(Br)cs3)cc2)nc(N2CCCC2)n1
480 min: all assays above
